Like-named read-outs stand apart in the source and are kept apart here.

Chains of the proteins cited; added tags and fusions are not shown. Residues count along the entry.
UniProt P03951, 388-625 limits assumed: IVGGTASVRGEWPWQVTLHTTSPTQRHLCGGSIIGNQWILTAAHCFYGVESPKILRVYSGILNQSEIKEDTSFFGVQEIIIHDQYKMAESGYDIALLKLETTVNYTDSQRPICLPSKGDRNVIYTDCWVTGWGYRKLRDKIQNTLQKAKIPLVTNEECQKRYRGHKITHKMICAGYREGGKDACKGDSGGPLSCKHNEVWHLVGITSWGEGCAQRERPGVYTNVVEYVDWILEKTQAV
UniProt P03951, 19-387 partner limits assumed: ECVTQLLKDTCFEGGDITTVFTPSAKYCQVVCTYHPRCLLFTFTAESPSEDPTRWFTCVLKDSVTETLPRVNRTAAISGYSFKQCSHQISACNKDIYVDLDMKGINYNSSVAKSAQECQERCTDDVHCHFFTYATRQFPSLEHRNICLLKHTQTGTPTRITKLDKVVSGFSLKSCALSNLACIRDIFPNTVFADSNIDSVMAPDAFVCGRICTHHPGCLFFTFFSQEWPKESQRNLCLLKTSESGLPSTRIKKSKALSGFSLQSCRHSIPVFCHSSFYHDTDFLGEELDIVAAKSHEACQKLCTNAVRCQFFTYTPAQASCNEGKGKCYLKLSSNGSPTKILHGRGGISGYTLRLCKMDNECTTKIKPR
UniProt P00742, 235-488 limits assumed: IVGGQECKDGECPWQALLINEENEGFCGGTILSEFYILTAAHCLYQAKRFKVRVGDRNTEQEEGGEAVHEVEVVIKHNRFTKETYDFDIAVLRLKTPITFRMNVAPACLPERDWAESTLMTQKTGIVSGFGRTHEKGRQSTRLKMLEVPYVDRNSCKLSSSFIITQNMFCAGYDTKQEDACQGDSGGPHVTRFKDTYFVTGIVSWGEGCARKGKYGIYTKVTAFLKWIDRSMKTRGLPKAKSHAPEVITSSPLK
UniProt P00742, 41-179 partner limits assumed: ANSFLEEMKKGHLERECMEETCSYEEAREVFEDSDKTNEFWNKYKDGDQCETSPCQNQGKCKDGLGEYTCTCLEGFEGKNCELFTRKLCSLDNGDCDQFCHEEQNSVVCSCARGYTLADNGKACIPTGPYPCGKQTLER

For one experiment, the target named is thrombin (Homo sapiens, UniProt P00734). In words: Thrombin enzyme inhibition assay (purified enzyme). The conditions noted are these: read-out: thrombin IC50.
For another experiment, the target named is native Factor XIa (Homo sapiens, UniProt P03951). The experiment is described as follows: Factor XIa enzyme inhibition assay (fluorogenic substrate pyroGlu-Pro-Arg-AMC). It is filed as biochemical. The settings on record: read-out: FXIa IC50.
A further experiment deals with Factor Xa (Homo sapiens, UniProt P00742). The experiment is described as follows: Factor Xa enzyme inhibition assay (purified enzyme). The settings on record: read-out: FXa IC50.
The mark [1] stands for this setting: Table 13, pyrimidinone compounds of formula I.
Where [2] appears, read: Table 14, compounds of formula II.
The mark [3] stands for this setting: Table 14, tested form: trifluoroacetate.

Consider `CC(C)Nc1cnc(-c2ccc3ccccc3c2)n(CC(=O)N[C@@H](CCCNC(=N)N)C(=O)c2nccs2)c1=O`, for which the IC50 is 14200 nM on thrombin (Table 13), 1030 nM on native Factor XIa (setting [1]) and 391 nM at Factor Xa (Table 13).
As for `N=C(N)c1ccc2cccc(NC(=O)c3cccc(S(=O)(=O)OCCCO)c3)c2c1`, the IC50 was 163000 nM at thrombin (Table 14), 609 nM on native Factor XIa (setting [2]) and 41200 nM at Factor Xa (Table 14).
`COC(=O)c1cc(NC(=O)c2cccc(O)c2C)c2cc(C(=N)N)ccc2c1`: the values for the IC50 at thrombin (Table 14), at native Factor XIa (setting [2]) and at Factor Xa (Table 14) were 7450 nM, 111 nM and 2620 nM, respectively.
Turning to `Cc1cccc(-c2ncc(NCc3ccccc3)c(=O)n2CC(=O)N[C@@H](CCCNC(=N)N)C(=O)c2nccs2)c1`, the IC50 at thrombin (Table 13) worked out at 65 nM; on native Factor XIa (setting [1]) it was 612 nM; on Factor Xa (Table 13) it was 470 nM.
As to `Cc1c(O)cccc1C(=O)Nc1cc(C(=O)NCC(C)C)cc2ccc(C(=N)N)cc12`, the figures for the IC50 at thrombin (Table 14), at native Factor XIa (setting [2]) and at Factor Xa (Table 14) were 16300 nM, 571 nM and 7900 nM, respectively.
`Cc1c(O)cccc1C(=O)Nc1cc(C(=O)NCc2ccccc2)cc2ccc(C(=N)N)cc12`: the IC50 came to 30700 nM on thrombin (setting [3]); 76 nM on native Factor XIa (Table 14, compounds of formula II, tested form: trifluoroacetate); 1190 nM at Factor Xa (setting [3]).
For `Cc1c(O)cccc1C(=O)Nc1cccc2ccc(C(=N)N)cc12`, the values for the IC50 at thrombin (Table 14), on native Factor XIa (setting [2]) and at Factor Xa (Table 14) were 58500 nM, 700 nM and 3200 nM, respectively.

What is called IC50 is the concentration at which inhibition is half-maximal.

These data come from patent US7217794B2, “Compounds and methods for treatment of thrombosis” (Daiamed, Inc., priority 2003, dated 2007).
